The chains behind the UniProt entries cited, without tags or fusion partners. Residues count along the entry.
UniProt P09619, 33-1106: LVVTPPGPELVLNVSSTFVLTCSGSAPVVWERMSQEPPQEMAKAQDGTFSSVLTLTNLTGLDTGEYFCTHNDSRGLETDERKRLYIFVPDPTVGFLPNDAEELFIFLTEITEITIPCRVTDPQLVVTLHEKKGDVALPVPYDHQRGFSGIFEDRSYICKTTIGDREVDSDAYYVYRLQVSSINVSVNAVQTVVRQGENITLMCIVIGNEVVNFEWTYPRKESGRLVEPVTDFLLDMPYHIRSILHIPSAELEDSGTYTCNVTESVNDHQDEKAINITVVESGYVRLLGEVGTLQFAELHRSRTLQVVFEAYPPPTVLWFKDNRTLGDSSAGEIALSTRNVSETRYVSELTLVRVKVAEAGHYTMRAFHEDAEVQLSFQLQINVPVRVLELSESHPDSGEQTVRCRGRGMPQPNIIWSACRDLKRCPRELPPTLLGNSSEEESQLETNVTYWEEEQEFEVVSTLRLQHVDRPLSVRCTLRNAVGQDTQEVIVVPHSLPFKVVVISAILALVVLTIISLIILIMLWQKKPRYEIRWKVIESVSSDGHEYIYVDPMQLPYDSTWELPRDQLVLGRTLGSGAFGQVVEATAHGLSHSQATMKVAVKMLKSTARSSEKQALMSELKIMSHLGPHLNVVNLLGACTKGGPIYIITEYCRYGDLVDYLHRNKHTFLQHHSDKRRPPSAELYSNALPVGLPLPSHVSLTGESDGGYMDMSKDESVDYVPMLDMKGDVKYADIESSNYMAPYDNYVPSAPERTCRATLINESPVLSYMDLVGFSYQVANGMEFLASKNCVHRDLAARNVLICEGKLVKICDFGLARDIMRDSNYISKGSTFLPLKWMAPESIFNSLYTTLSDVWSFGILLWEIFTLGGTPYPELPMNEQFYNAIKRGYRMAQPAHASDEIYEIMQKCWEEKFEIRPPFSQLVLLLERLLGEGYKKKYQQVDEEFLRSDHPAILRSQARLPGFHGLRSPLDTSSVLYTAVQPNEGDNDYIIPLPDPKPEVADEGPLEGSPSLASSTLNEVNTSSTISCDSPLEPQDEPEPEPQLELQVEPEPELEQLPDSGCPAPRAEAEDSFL

According to patent US6423716B1, “Nitrogenous heterocyclic compounds” (Kyowa Hakko Kogyo Co., Ltd., priority 1998, dated 2002):

Biological target: T1, human β-PDGF receptor (Homo sapiens, UniProt P09619)
T1 construct: expressed in transfected cells; host or cells: Chinese hamster ovary (CHO) cells
Test: PDGF receptor phosphorylation inhibition test
Assay type: cell-based
Details: CHO cells expressing human β-PDGF receptor cDNA; concentration inhibiting 50% of PDGF receptor phosphorylation
Protocol: PDGF Receptor Phosphorylation Inhibition Test
This test was carried out according to the process disclosed in a literature [J. Biol. Chem., 266: 413-418 (1991)]. In this case, Chinese hamster ovary (CHO) cells to which human β-PDGF receptor cDNA had been inserted and in which it had been expressed were used in the test.
Test results on Compounds 22, 50, 52, 63 and 66 were represented by a ratio (%) of inhibiting phosphorylation of the PDGF receptor at 10 μM, with the results shown in Table 3.

Going from `S=C(NCc1ccccc1)N1CCN(c2ncnc3nc[nH]c23)CC1` [Compound 3, N-Benzyl-4-(6-purinyl)-1-piperazinethiocarboxamide] to `O=C(Nc1ccc(Oc2ccccc2)cc1)N1CCN(c2ncnc3nc[nH]c23)CC1` [Compound 1, N-(4-Phenoxyphenyl)-4-(6-purinyl)-1-piperazinecarboxamide], the IC50 falls from 890 nM to 290 nM (3.1-fold). The second is the more potent here.

Work on `Nc1nc(N2CCN(C(=O)Nc3ccc(Oc4ccccc4)cc3)CC2)c2[nH]cnc2n1` [Compound 5, 4-(2-Amino-6-purinyl)-N-(4-phenoxyphenyl)-1-piperazinecarboxamide] yielded an IC50 of 200 nM.
